Reference: PubChem BioAssay AID652048 (National Center for Advancing Translational Sciences (NCATS), 2013)
Values joined by “and” are separate entries in the source; they are usually repeats but may differ in a detail not shown here. Identical values can stand only once. This is a selection; strong and weak results do not stand in their true shares. Some results for these compounds are left out of this collection, so the calls shown say nothing about other tests. Active and inactive are the calls of the source. Cut-off read from the data, not from the text of the source: active = max activation above about 30%; inactive = the rest.

By UniProt entry, the sequences of proteins in these tests, tags left out.
UniProt P35462, whole entry: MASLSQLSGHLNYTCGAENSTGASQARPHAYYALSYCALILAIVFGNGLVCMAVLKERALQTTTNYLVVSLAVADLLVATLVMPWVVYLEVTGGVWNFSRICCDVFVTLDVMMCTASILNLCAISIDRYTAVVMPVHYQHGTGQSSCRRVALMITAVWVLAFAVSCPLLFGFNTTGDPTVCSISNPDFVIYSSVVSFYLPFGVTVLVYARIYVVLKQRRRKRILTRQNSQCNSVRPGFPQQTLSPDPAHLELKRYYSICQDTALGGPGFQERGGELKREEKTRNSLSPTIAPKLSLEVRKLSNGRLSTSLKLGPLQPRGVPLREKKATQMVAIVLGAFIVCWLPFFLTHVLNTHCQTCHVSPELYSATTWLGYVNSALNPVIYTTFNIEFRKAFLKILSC

molecular target: D(3) dopamine receptor (Homo sapiens) (UniProt P35462); assay: qHTS of D3 Dopamine Receptor Agonist: qHTS; details: D3R DiscoveRx beta-arrestin cells, luminescence, 90 min; active compounds read high; note: 0% is about no effect
Text: D3 DARs represent a very important target for the treatment of several neuropsychiatric disorders. Indeed, one of the most promising therapeutic applications for the D3 DAR is in the area of addiction and related disorders. […] These findings have been observed with a number of addictive substances including cocaine, amphetamine, nicotine, and alcohol. […] Antagonism of the D3 DAR may also be therapeutic in the treatment of schizophrenia or psychosis. […] Since the D3 DAR is expressed in areas of the CNS associated with the control of mood and emotion, it has been hypothesized that selective antagonism of the D3 DAR may be effective in treating psychosis without inducing the motor side effects typically seen with D2 DAR antagonists.
This part of the project aims to discover novel agonist.
NIH Chemical Genomics Center [NCGC]
NIH Molecular Libraries Probe Centers Network [MLPCN]
Assay Submitter (PI): David Sibley, NINDS
Freshly passaged cells are plated in 1536 well white, solid bottom plates at a density of 1500 cells/well in 3microl of complete media. After an overnight incubation at 37 degrees C in 5% CO2, cells are loaded with 23nl of test compound from the compound library (as well as dopamine controls) using a 1536 pintool and incubated at 37 degrees C for 90 minutes. Two microliters of DiscoveRx reagent is then added to all cells, and they are incubated for an additional 30 - 60 minutes at room temperature. Following incubation, luminescence is measured on a ViewLux CCD-based luminometer reader using a 20 sec exposure time.

Row | Compound | max activation
1 | CC(C)N1C(=O)CC2(CCN(CCOC(=O)C(O)(c3ccccc3)c3ccccc3)CC2)C1=O | inactive: 4.11%
2 | CN(C)C1(CNC(=O)c2cccc(Cl)c2)CCCCC1 | inactive: -18.7%
3 | CCN(CC)CC(C)C(C)OC(=O)C(O)(c1ccccc1)c1ccccc1 (configuration not stated) | inactive: -18.6%
4 | COc1cc(SC)ccc1C(=O)NCC1(N(C)C)CCCCC1 | inactive: 2.77%
5 | CN(C)C1(CNC(=O)c2ccccc2F)CCCCC1 | inactive: -16.9%
6 | Cc1ccc(C(=O)NCC2(N3CCCCC3)CCCCC2)cc1 | inactive: -23.6%
7 | O=C(NCC1(N2CCCCC2)CCCCC1)c1cc([N+](=O)[O-])ccc1Cl | inactive: 2.6%
8 | CN1[C@@H]2CC[C@H]1CC(OC(=O)C(O)(c1ccccc1)c1ccccc1)C2 (some centres not stated) | inactive: -3.68%
9 | C=CCN1CCN(CCOC(=O)C(O)(c2ccccc2)c2ccccc2)CC1 | inactive: -0.776%
10 | O=C(NCC1(N2CCCCC2)CCCCC1)c1cc(F)c(F)cc1Cl | inactive: 1.3%
11 | CCN1CCCC(OC(=O)C2(O)c3ccccc3C=Cc3ccccc32)C1 (configuration not stated) | inactive: -5.39%
12 | Cc1cc(C(=O)NCC2(N3CCCCC3)CCCCC2)ccc1[N+](=O)[O-] | inactive: -6.1%
13 | O=C(NCC1(N2CCCCC2)CCCCC1)c1cccc(Br)c1 | inactive: -15.2%
14 | COc1ccc(C(=O)NCC2(N(C)C)CCCCC2)cc1 | inactive: 1.69%
15 | CCOc1cccc(C(=O)NCC2(N(C)C)CCCCC2)c1 | inactive: -21.7%
16 | Cc1ccccc1C(=O)NCC1(N2CCCCC2)CCCCC1 | inactive: -3.31%
17 | CN(C)C1(CNC(=O)c2ccccc2[N+](=O)[O-])CCCCC1 | inactive: 0.538%
18 | CN(C)c1ccc(C(=O)NCC2(N(C)C)CCCCC2)cc1 | inactive: -5.41%
19 | CN(C)C1CCCC1OC(=O)C(O)(c1ccccc1)c1ccccc1 (configuration not stated) | inactive: -1.16%

Row | Compound | max activation
20 | CN1CCCC(OC(=O)C(O)(c2ccccc2)c2ccccc2)C1 (configuration not stated) | inactive: -1.67%
21 | CCCCOc1ccccc1C(=O)NCC1(N(C)C)CCCCC1 | inactive: -21.6%
22 | COc1ccc(C(=O)NCC2(N(C)C)CCCCC2)cc1Cl | inactive: -21%
23 | COc1cccc(C(=O)NCC2(N3CCCCC3)CCCCC2)c1 | inactive: -8.59%
24 | COc1ccc(Cl)cc1C(=O)NCC1(N(C)C)CCCCC1 | inactive: -35.9%
25 | O=C(NCC1(N2CCCCC2)CCCCC1)c1cccc(Cl)c1 | inactive: -14.7%
26 | CN(C)C1(CNC(=O)c2ccc(Br)cc2)CCCCC1 | inactive: -5.06%
27 | COc1cc(C(=O)NCC2(N(C)C)CCCCC2)c([N+](=O)[O-])cc1OC | inactive: 2.16%
28 | Cc1cccc(C(=O)NCC2(N(C)C)CCCCC2)c1 | inactive: -21.5%
29 | COc1cc(C(=O)NCC2(N(C)C)CCCCC2)cc(OC)c1OC | inactive: -19.8%
30 | COc1ccc(Br)c(C(=O)NCC2(N3CCCCC3)CCCCC2)c1 | inactive: -1.71%
31 | C=C(C)C#CC(O)(C(=O)OC1CCN(C)CC1)c1ccccc1 (configuration not stated) | inactive: -12.2%
32 | CN(C)c1cccc(C(=O)NCC2(N(C)C)CCCCC2)c1 | inactive: -6.88%
33 | CC(C)Oc1ccc(C(=O)NCC2(N(C)C)CCCCC2)cc1 | inactive: 0.763% and inactive: 7.73%
34 | O=C(OCCN1CCCC1)C(O)(c1ccccc1)c1ccccc1 | inactive: 2.33%
35 | O=C(OC1CN2CCC1CC2)C(CO)(c1ccccc1)c1ccccc1 (configuration not stated) | inactive: -6.25%
36 | COc1cccc(C(=O)NCC2(N3CCOCC3)CCCCC2)c1 | inactive: -21.2%
37 | CC(C)COc1ccc(C(=O)NCC2(N(C)C)CCCCC2)cc1 | inactive: -19.4%
